Source: patent US8362026B2, “Crystalline form of 2-chloro-5-[3,6-dihydro-3-methyl-2,6-dioxo-4-(trifluoromethyl)-1-(2H)-pyrimidinyl]-4-fluoro-N-[[methyl(1-methyl-ethyl)amino]sulfonyl]benzamide” (BASF SE, priority 2006, dated 2013)

Legend:
[1] = test system: Mercurialis annua; conditions: harmful plant Mercurialis annua; pre-emergence; 6.25 g/ha a.s.; aqueous SC; scale 0-100
Text: (§1) The seeds of the test plants were sown separately for each species.
(§2) The test period extended over 2 to 4 weeks.

[2] = test system: Matricaria inodora; conditions: harmful plant Matricaria inodora; post-emergence + 1 l/ha Rustica Öl; 5 g/ha a.s.; scale 0-100
Text: as §1, §2

[3] = test system: Ambrosia elatior; conditions: harmful plant Ambrosia elatior; pre-emergence; 12.5 g/ha a.s.; aqueous SC; scale 0-100
Text: as §1, §2

[4] = test system: Chenopodium album; conditions: harmful plant Chenopodium album; post-emergence + 1 l/ha Rustica Öl; 15 g/ha a.s.; scale 0-100
Text: as §1, §2

[5] = test system: Stellaria media; conditions: harmful plant Stellaria media, scale 0-100
Text: as §1, §2

[6] = test system: Thlaspi arvense; conditions: harmful plant Thlaspi arvense; post-emergence; 10 g/ha a.s.; scale 0-100
Text: as §1, §2

[7] = test system: Viola arvensis; conditions: harmful plant Viola arvensis; post-emergence + 1 l/ha Rustica Öl; 5 g/ha a.s.; scale 0-100
Text: as §1, §2

[8] = test system: Secale cereale; conditions: useful plant Secale cereale, post-emergence + 1 l/ha Rustica Öl, scale 0-100
Text: as §1, §2

[9] = test system: Sida spinosa; conditions: harmful plant Sida spinosa; pre-emergence; 12.5 g/ha a.s.; aqueous SC; scale 0-100
Text: as §1, §2

[10] = test system: Galium aparine; conditions: harmful plant Galium aparine; post-emergence + 1 l/ha Rustica Öl; 15 g/ha a.s.; scale 0-100
Text: as §1, §2

[11] = test system: Glycine max; conditions: useful plant Glycine max, pre-emergence, aqueous SC 100 g/l, scale 0-100
Text: as §1, §2

[12] = test system: Salsola kali ssp. ruthenica; conditions: harmful plant Salsola kali ssp. ruthenica; post-emergence; 20 g/ha a.s.; scale 0-100
Text: as §1, §2

[13] = test system: Hordeum vulgare; conditions: useful plant Hordeum vulgare, scale 0-100
Text: as §1, §2

[14] = test system: Pharbitis purpurea; conditions: harmful plant Pharbitis purpurea; pre-emergence; 6.25 g/ha a.s.; aqueous SC; scale 0-100
Text: as §1, §2

[15] = test system: Euphorbia heterophylla; conditions: harmful plant Euphorbia heterophylla, pre-emergence, aqueous SC, scale 0-100
Text: as §1, §2

[16] = test system: Papaver rhoeas; conditions: harmful plant Papaver rhoeas; post-emergence; 20 g/ha a.s.; scale 0-100
Text: as §1, §2

[17] = test system: Kochia scoparia; conditions: harmful plant Kochia scoparia; post-emergence; 20 g/ha a.s.; scale 0-100
Text: as §1, §2

[18] = test system: Sinapis arvensis; conditions: harmful plant Sinapis arvensis; post-emergence; 10 g/ha a.s.; scale 0-100
Text: as §1, §2

[19] = test system: Triticum aestivum; conditions: useful plant Triticum aestivum; post-emergence + 1 l/ha Rustica Öl; 20 g/ha a.s.; scale 0-100
Text: as §1, §2

[20] = test system: Helianthus annuus; conditions: harmful plant Helianthus annuus; pre-emergence; 12.5 g/ha a.s.; aqueous SC; scale 0-100
Text: as §1, §2

[21] = test system: Veronica persicaria; conditions: harmful plant Veronica persicaria; post-emergence; 15 g/ha a.s.; scale 0-100
Text: as §1, §2

[22] = test system: Polygonum convolvulus; conditions: harmful plant Polygonum convolvulus, scale 0-100
Text: as §1, §2

[23] = test system: Capsella bursa-pastoris; conditions: harmful plant Capsella bursa-pastoris; post-emergence + 1 l/ha Rustica Öl; 15 g/ha a.s.; scale 0-100
Text: as §1, §2

[24] = test system: Lamium purpureum; conditions: harmful plant Lamium purpureum; post-emergence + 1 l/ha Rustica Öl; 10 g/ha a.s.; scale 0-100
Text: as §1, §2

[25] = test system: Thiaspi arvense; conditions: harmful plant Thiaspi arvense; post-emergence + 1 l/ha Rustica Öl; 5 g/ha a.s.; scale 0-100
Text: as §1, §2

[26] = test system: test plants; conditions: greenhouse tests, pre- and post-emergence, summary of Tables 4-6
Text: as §1, §2

[27] = post-emergence + 1 l/ha Rustica Öl, 5 g/ha a.s.
[28] = pre-emergence, 12.5 g/ha a.s., aqueous SC
[29] = pre-emergence, 25 g/ha a.s., aqueous SC
[30] = post-emergence + 1 l/ha Rustica Öl, 15 g/ha a.s.
[31] = post-emergence + 1 l/ha Rustica Öl, 20 g/ha a.s.

| SMILES | Damage [%] [1] | Damage [%] [2] | Damage [%] [3] | Damage [%] [4] | Damage [%] [5, 27] | Damage [%] [5, 28] | Damage [%] [5, 29] | Damage [%] [6] | Damage [%] [7] | Damage [%] ([8]; 10 g/ha a.s.) | Damage [%] ([8]; 15 g/ha a.s.) | Damage [%] ([8]; 20 g/ha a.s.) | Damage [%] [9] | Damage [%] [10] | Damage [%] ([11]; 12.5 g/ha a.s.) | Damage [%] ([11]; 25 g/ha a.s.) | Damage [%] [12] | Damage [%] [13, 30] | Damage [%] [13, 31] | Damage [%] ([13]; post-emergence, 15 g/ha a.s.) | also measured |
| --- | --- | --- | --- | --- | --- | --- | --- | --- | --- | --- | --- | --- | --- | --- | --- | --- | --- | --- | --- | --- | --- |
| CC(C)N(C)S(=O)(=O)NC(=O)c1cc(-n2c(=O)cc(C(F)(F)F)n(C)c2=O)c(F)cc1Cl (single isomer, unassigned) [Form I, 2-chloro-5-[3,6-dihydro-3-methyl-2,6-dioxo-4-(trifluoromethyl)-1-(2H)-pyrimidinyl]-4-fluoro-N-[[methyl(1-methylethyl)amino]sulfonyl]benzamide, reference compound] | 40% | 65% | 60% | 70% | 50% | 65% | 75% | 30% | 40% | 10% | 10% | 15% | 90% | 75% | 30% | 70% | 80% | 15% | 20% | 5% | Damage [%] ([13]; post-emergence, 20 g/ha a.s.): 5%; Damage [%] [14]: 70%; Damage [%] ([15]; 6.25 g/ha a.s.): 40%; Damage [%] ([15]; 12.5 g/ha a.s.): 95%; Damage [%] [16]: 20%; Damage [%] [17]: 45%; Damage [%] [18]: 50%; Damage [%] [19]: 15%; Damage [%] [20]: 70%; Damage [%] [21]: 40%; Damage [%] [22, 30]: 70%; Damage [%] ([22]; post-emergence, 20 g/ha a.s.): 40%; Damage [%] [23]: 80%; Damage [%] [24]: 60%; Damage [%] [25]: 70% |
| CC(C)N(C)S(=O)(=O)NC(=O)c1cc(-n2c(=O)cc(C(F)(F)F)n(C)c2=O)c(F)cc1Cl (single isomer, unassigned) [Form II, 2-chloro-5-[3,6-dihydro-3-methyl-2,6-dioxo-4-(trifluoromethyl)-1-(2H)-pyrimidinyl]-4-fluoro-N-[[methyl(1-methylethyl)amino]sulfonyl]benzamide] | 100% | 100% | 75% | 100% | 100% | 85% | 100% | 98% | 90% | 5% | 10% | 15% | 100% | 100% | 10% | 30% | 100% | 10% | 20% | 0% | herbicidal activity in comparison with form I [26]: markedly improved herbicidal activity; tolerance by the crop plant in comparison with form I [26]: the same or better tolerance by the crop plant; Damage [%] ([13]; post-emergence, 20 g/ha a.s.): 0%; Damage [%] [14]: 100%; Damage [%] ([15]; 6.25 g/ha a.s.): 70%; Damage [%] ([15]; 12.5 g/ha a.s.): 100%; Damage [%] [16]: 70%; Damage [%] [17]: 100%; Damage [%] [18]: 80%; Damage [%] [19]: 15%; Damage [%] [20]: 100%; Damage [%] [21]: 80%; Damage [%] [22, 30]: 100%; Damage [%] ([22]; post-emergence, 20 g/ha a.s.): 100%; Damage [%] [23]: 100%; Damage [%] [24]: 90%; Damage [%] [25]: 100% |

Like-named read-outs stand apart in the source and are kept apart here.
